Test: Solubility (20° C.) of branched chain-containing and straight chain-containing aromatic compounds in various solvents

solubility in CPME (saturated in CPME (cyclopentylmethylether) at 20° C.): >50 wt %
solubility in chloroform (saturated in chloroform at 20° C.): >50 wt %
solubility in ethyl acetate (saturated in ethyl acetate at 20° C.): >25 wt %
solubility in isopropyl acetate (saturated in isopropyl acetate at 20° C.): >25 wt %
Substance: (4′,4′-bisdihydrophytyloxy)benzhydrol [Example 4]

Reference: patent US10711033B2, “Branched chain-containing aromatic compound” (AJINOMOTO CO., INC., priority 2010, dated 2020)
